Data set [1] can be described thus: UV photostability, irradiation at 254 nm, 1H NMR. Conditions: 70 h UV irradiation at 254 nm.
The target of data set [2] is FXR ligand binding domain (Homo sapiens, UniProt Q96RI1). Description: Mammalian One Hybrid (M1H) Gal4 reporter assay in HEK293 cells. In kind it is cell-based. The settings on record: read-out: Gal4 (M1H) EC50, potency range.
Data set [3] addresses human FXR alpha ligand binding domain (Homo sapiens, UniProt Q96RI1). Nature of the data set: FRET activity assay (ligand mediated cofactor peptide interaction, LANCE). It is filed as biochemical. The settings on record: read-out: FRET EC50; potency range.

By UniProt entry, the sequences of proteins in these tests, tags left out. Residues count along the entry.
UniProt Q96RI1, 187-472 isoform 2 limits assumed: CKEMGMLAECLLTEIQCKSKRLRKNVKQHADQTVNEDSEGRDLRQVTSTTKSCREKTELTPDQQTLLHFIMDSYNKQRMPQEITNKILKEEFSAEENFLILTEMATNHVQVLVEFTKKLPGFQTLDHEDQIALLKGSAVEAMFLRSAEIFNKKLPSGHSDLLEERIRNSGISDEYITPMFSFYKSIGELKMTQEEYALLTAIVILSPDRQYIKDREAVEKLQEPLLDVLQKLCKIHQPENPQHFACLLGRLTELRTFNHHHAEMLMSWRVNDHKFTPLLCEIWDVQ

The structures appear in SMILES notation.

The term EC50 denotes the concentration giving half of the maximal effect. As for `O=C(O)c1cccc(/C=C/c2ccc(OCc3c(-c4c(Cl)cccc4Cl)noc3C3CC3)cc2Cl)c1`, the “behaviour in 1H NMR spectrum after prolonged UV irradiation” value in data set [1] was “major changes”. Also, in data set [1] (deuterated ethanol), the “compound still present in the mixture (1H NMR integration)” value was 45%. Moreover, the EC50 in data set [2] and in data set [3] was 10 to 100 nM throughout.

These data come from patent US8952042B2, “FXR (NR1H4) binding and activity modulating compounds” (Phenex Pharmaceuticals AG, priority 2009, dated 2015).
